This passage reports fold change (FC) results from ChEMBL document CHEMBL4043223, “Structure-activity relationship study of small molecule inhibitors of the DEPTOR-mTOR interaction” (Bioorg Med Chem Lett, 2017).

The chains behind the UniProt entries cited, without tags or fusion partners.
UniProt Q8TB45, whole entry: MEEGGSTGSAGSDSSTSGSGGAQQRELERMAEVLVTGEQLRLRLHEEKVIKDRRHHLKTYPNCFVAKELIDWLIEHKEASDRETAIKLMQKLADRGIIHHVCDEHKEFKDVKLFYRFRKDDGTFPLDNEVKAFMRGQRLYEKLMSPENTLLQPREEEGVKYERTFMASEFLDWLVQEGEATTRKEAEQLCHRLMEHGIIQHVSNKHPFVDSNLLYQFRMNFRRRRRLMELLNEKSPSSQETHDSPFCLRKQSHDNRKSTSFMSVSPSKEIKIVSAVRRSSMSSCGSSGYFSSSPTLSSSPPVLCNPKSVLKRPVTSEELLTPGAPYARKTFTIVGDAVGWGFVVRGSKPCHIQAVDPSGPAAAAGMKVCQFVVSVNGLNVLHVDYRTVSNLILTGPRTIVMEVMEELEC

This assay addresses DEP domain-containing mTOR-interacting protein (Homo sapiens) (UniProt Q8TB45). Nature of the assay: Inhibition of mTOR binding to DEPTOR in human RPMI8226 cells assessed as increase in mTORC1-associated p70 phosphorylation after 6 hrs by Western blot analysis relative to control. The class given is cell-based. For orientation: Immunoblotting shows a protein as a band on a membrane.

The structures appear in SMILES notation.

Consider `FC(F)(F)c1cccc(NN=C2C(Cl)=C(Cl)C(Cl)=C2Cl)c1`, for which the fold change (FC) stood at 4.
